Our source for the IC50 values is patent publication US20250074888A1, “PYRIDAZINE DERIVATIVES AS MODULATORS OF NLRP3 INFLAMMASOME AND RELATED METHODS” (Neumora Therapeutics, Inc., priority 2021, published 2025).

Protein sequences, listed by entry. Tags and fused reporters are not part of them.
UniProt Q96P20, whole entry: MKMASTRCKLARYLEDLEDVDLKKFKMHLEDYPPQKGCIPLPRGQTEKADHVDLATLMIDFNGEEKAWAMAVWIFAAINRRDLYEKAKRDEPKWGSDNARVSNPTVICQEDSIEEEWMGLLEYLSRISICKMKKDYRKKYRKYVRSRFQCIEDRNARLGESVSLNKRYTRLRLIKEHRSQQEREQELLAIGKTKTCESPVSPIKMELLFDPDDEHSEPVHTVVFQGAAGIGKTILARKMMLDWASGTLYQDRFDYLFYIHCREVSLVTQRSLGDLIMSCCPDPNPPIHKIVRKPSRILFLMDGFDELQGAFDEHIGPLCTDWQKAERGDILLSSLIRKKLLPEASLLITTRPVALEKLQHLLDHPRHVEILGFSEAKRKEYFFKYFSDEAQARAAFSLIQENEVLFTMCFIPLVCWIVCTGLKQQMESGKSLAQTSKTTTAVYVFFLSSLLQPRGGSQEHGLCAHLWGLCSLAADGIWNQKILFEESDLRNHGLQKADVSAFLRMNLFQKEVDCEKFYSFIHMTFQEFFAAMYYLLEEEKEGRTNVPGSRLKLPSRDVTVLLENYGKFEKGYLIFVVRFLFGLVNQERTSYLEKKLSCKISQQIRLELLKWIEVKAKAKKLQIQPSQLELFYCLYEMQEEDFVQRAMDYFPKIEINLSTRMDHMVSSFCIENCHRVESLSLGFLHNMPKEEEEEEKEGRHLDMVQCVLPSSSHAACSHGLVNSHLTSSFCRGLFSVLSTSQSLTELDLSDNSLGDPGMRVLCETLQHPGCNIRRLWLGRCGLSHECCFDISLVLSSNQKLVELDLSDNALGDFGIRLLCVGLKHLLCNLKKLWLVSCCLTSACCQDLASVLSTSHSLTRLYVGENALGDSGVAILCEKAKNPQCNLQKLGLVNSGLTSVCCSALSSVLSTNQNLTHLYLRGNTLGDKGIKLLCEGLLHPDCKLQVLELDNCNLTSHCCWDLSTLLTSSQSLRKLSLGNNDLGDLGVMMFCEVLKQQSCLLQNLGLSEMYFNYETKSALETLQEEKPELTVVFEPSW

A value given as a limit tells only on which side of the number the result lay.

Test [1] deals with NLRP3 inflammasome (Homo sapiens, UniProt Q96P20). As to the kind of experiment: NLRP3 inflammasome activation in THP1 macrophages (LPS priming, nigericin), IL-1β AlphaLISA. Conditions: read-out: IL-1β Activity; PMA-differentiated THP1, LPS 20 ng/ml 3 hrs, compound 1 hr, Nigericin 6.7 uM 3 hrs, supernatant.
Test [2] deals with IL-6. Nature of the test: IL-6 release from LPS-primed, nigericin-treated THP1 macrophages, Hu IL-6 AlphaLISA. Conditions: read-out: IL-6 Activity; PMA-differentiated THP1, LPS 20 ng/ml 3 hrs, compound 1 hr, Nigericin 6.7 uM 3 hrs, supernatant.

`Cc1cc(-c2ccc(C(F)(F)F)cc2)nnc1N[C@@H]1CCCNC1`: the IC50 in test [1] is above 1 µM; in test [2], 5 to 10 µM.
